Assays:
[1] = molecular target: T1, CB1 (HitHunter cAMP cells) (Homo sapiens, UniProt P21554); test: HitHunter cAMP inhibition, enzyme fragment complementation; assay type: cell-based; details: agonist; no OX plasmid (mock transfection); 10 μM forskolin, 90 min, 37°C; printed pEC50 8.8 ± 0.45; unreliable
T1 construct: gene CNR1; unmodified full receptor stably expressed in CHO-K1 HitHunter cAMP cells (DiscoverX)
Text: HitHunter cAMP inhibition, enzyme fragment complementation on CB1 (HitHunter cAMP cells)

Sequences of proteins named here, by UniProt entry; tags and fusion partners are left off.
UniProt P21554, whole entry: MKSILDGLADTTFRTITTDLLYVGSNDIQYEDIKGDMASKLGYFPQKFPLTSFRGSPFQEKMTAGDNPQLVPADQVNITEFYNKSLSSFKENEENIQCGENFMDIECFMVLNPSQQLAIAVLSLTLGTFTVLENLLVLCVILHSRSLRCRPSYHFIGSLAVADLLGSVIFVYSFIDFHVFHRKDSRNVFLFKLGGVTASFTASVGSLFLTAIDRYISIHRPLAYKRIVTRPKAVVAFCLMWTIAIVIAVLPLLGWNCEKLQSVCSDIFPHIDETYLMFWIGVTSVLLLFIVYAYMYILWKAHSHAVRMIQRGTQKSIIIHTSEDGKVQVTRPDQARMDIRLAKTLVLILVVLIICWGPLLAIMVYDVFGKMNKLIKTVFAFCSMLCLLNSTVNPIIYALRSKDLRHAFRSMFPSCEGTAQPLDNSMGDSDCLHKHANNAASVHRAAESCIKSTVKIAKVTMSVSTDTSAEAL
UniProt P34972, whole entry: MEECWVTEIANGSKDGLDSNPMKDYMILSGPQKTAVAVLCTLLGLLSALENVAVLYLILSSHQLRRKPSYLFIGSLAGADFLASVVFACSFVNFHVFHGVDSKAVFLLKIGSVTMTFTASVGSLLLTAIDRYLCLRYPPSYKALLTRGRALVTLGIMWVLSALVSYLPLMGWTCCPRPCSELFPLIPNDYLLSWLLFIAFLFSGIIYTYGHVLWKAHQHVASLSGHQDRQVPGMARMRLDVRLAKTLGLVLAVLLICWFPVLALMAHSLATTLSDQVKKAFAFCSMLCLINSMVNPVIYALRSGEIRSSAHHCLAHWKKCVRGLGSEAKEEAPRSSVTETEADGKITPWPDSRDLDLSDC

[2] = molecular target: T2, CB2 (HitHunter cAMP cells) (Homo sapiens, UniProt P34972); test: as above; assay type: cell-based; details: agonist; no OX plasmid (mock transfection); 10 μM forskolin, 90 min, 37°C; printed pEC50 8.0 ± 0.62; Hill slope constrained to 1; unreliable
T2 construct: gene CNR2; unmodified full receptor stably expressed in CHO-K1 HitHunter cAMP cells (DiscoverX)
Text: HitHunter cAMP inhibition, enzyme fragment complementation on CB2 (HitHunter cAMP cells)

With “(−)‐cis‐3‐[2‐Hydroxy‐4‐(1,1‐dimethylheptyl)phenyl]‐trans‐4‐(3‐hydroxypropyl)cyclohexanol [CP55,940]” the “cAMP / pEC50 (nM)” value [1] was 1.5 nM and the “cAMP / pEC50 (nM)” value [2] was 10 nM.

From PMC11860274, “In Vitro Signaling Properties of Cannabinoid and Orexin Receptors: How Orexin Receptors Influence Cannabinoid Receptor‐Mediated Signaling” (Pharmacology Research & Perspectives, 2025)
